From ChEMBL document CHEMBL4834395, “Azole-Based Indoleamine 2,3-Dioxygenase 1 (IDO1) Inhibitors” (J Med Chem, 2021) come the findings set out here.

Sequences of proteins named here, by UniProt entry; tags and fusion partners are left off.
UniProt P14902, whole entry: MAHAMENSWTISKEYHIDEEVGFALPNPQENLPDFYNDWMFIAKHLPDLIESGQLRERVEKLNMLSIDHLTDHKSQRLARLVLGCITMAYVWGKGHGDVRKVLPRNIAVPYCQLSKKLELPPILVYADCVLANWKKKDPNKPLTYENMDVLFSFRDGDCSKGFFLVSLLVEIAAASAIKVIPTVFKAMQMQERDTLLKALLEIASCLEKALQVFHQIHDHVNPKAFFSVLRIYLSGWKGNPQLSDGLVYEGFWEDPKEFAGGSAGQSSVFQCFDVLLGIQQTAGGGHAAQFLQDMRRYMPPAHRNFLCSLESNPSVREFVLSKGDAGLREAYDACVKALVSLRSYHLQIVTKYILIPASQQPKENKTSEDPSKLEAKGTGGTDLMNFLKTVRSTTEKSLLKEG

Assay [1] has as its target T1, Indoleamine 2,3-dioxygenase 1 (Homo sapiens, UniProt P14902). Kind of assay: Inhibition of recombinant human IDO1 expressed in Escherichia coli Rosetta (DE3) cells assessed as reduction in kynurenine production using L-tryptophan as substrate incubated for 20 mins by HPLC analysis.
The target of assay [2] is T1, Indoleamine 2,3-dioxygenase 1. Kind of assay: Inhibition of human IDO1 expressed in HEK293T cells assessed as reduction in kynurenine production using L-tryptophan as substrate incubated for 7 hrs by HPLC analysis. It is filed as cell-based.
For assay [3] the target is unchanged. The assay is described as follows: Inhibition of recombinant human IDO1 expressed in Escherichia coli Rosetta (DE3) cells assessed as reduction in kynurenine production using L-tryptophan as substrate at pH 7.4 incubated for 20 mins by HPLC analysis.

As for `Oc1ccc(Cl)cc1-c1c[nH]nn1`, the IC50 (as a rule, the point on the concentration scale where inhibition reaches its midpoint) in assay [1] was 59 nM; in assay [2], 110 nM; in assay [3], 34 nM.
